Literature values, collected in US9469616B2, “Cyclic compounds and methods of making and using the same” (Cellceutix Corporation, priority 2011, dated 2016).

System: human RBCs
Conditions: Data from Thaker, et al., J. Med. Chem., 2011, 54, 2241; cited from earlier work

MSI-78
HC50: 120 µg/mL
